# Yeast mating assay 1: variants of the scFv Ab-14

From the AlphaSeq antibody data of Engelhart et al. 2022 (doi:10.1038/s41597-022-01779-4), copy in the FLAb collection.

Binding partner: SARS-CoV-2 spike HR2 peptide, sequence PDVDLGDISGINAS.

Parent scFv Ab-14: VH joined to VL by the linker GGGGSGGGGSGGGGS. Changes lie in the light chain CDRs alone.
VH: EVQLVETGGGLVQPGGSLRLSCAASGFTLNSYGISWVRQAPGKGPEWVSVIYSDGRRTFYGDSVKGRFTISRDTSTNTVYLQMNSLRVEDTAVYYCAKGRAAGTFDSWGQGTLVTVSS
VL: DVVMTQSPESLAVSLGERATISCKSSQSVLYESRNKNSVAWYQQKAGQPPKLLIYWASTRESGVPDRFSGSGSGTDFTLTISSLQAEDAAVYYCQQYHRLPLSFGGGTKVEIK

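AAYL50 was designed without a model: most single CDR substitutions and a random sample of double and triple ones. The assay is AlphaSeq: two haploid yeast populations carry antibody and antigen on their surface. Mating (16 h, 30 °C) was followed by selection of diploids and sequencing of their barcodes. Each replicate has its own calibration line, from reference interactions of the BCL2 family. The assay was run in three technical replicates.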

Variants are written as CDR1, CDR2 and CDR3 of the light chain (limits as in the source). Parent: KSSQSVLYESRNKNSVA, WASTRES, QQYHRLPLS. Every variant below is changed at L102 of the VL (sequential numbering). Values are apparent Kd, the geometric mean of the replicates that gave a signal; lower means stronger binding. A pair that was not seen in any replicate is written "not detected"; this usually means weak binding, but a binder can also be missed. As a blank, each scFv also met three strains without target: over library AAYL50, 18% of these pairings were detected, typically at 15 µM and seldom below 970 nM.

| CDR-L1 | CDR-L2 | CDR-L3 | Kd | seen in |
|---|---|---|---|---|
| KSSQSVLYESRNKNSVA | WATTRES | QQYHPLPRS | 61 µM | 3 of 3 |
| KCSQSVLYESRNKNSVA | WASTRES | QQYWRLPGS | 73 µM | 2 of 3 |
| KSSQSVLYESRNKNSVA | PASTRES | QQYHRLPVS | not detected | 0 of 3 |
| KSSQSVLYESRNKNSVA | WASTFES | QQMHRLPNS | not detected | 0 of 3 |
| KSSQSVHYESRNKNSVA | WASTRES | QQYHALPFS | 13 nM | 3 of 3 |
| KSSQSSLYESRNKNSVA | WASTREY | QQYHRLPMS | 55 nM | 3 of 3 |
| KSSQSVLDESRNKNSVA | WQSTRES | QQYHRLPES | not detected | 0 of 3 |
| KSSQSVLYESRNKNSVA | WASTYES | QQMHRLPFS | not detected | 0 of 3 |
| KCSQSVLYESRNKNSVA | WASTRES | QHYHRLPIS | 20 nM | 3 of 3 |
| KSSQSVLMESYNKNSVA | WASTRES | QQYHRLPFS | 2.1 nM | 3 of 3 |
| KSSQSVLYNSRNKKSVA | WASTRES | QQYHRLPHS | 15 µM | 3 of 3 |
| KSSQSVLYESRNKNSVA | WCSTREP | QQYHRLPQS | 320 µM | 1 of 3 |
| KSSQSVLYESRNKPSVA | PASTRES | QQYHRLPGS | 170 µM | 3 of 3 |
| KSSQSVLYESRNKNSVA | WASTRES | QQYHRLPES | 37 nM | 3 of 3 |
| KSSQSVLYEIRNKNSVA | WASTRES | QQYHRLPTS | 18 µM | 3 of 3 |
| KSSQSVLYESRNKNSVA | WASTEES | QVYHRLPES | 5.9 µM | 1 of 3 |
| KSSVSVLYESRNKNSVV | WASTRES | QQYHRLPPS | 480 nM | 1 of 3 |
| KSSQWVLYESRNKNSVA | WASTRES | QQYHRLPQC | 150 nM | 3 of 3 |
| KSSQSVLMESRNKNSVQ | WASTRES | QQYHRLPCS | not detected | 0 of 3 |
| RSSQSVLYESRNKNSVA | WASTHES | QQYHRLPNS | not detected | 0 of 3 |
| KSSQSVLYESRNKNSVA | WASTRES | QMYHRAPMS | 5.6 nM | 3 of 3 |
| KSSQSVLYESRNKNSVA | WASTLES | QQYHRLTES | not detected | 0 of 3 |
| KSSQSVLYESRNKNSVA | WASTRCS | QQYHRLPNS | 2.0 µM | 3 of 3 |
| KSSQSVLYESRNKNSVA | WASGRES | TQYHRLPMS | 9.4 µM | 1 of 3 |
| KSSQSSLYESRNKNSVA | WASTRKS | QQYHRLPMS | 810 nM | 3 of 3 |
| KVSQSVLYESRNKNSVA | WASTRES | QQYVRLPWS | 4.2 nM | 3 of 3 |
| KSSQSVLYESRWKNCVA | WASTRES | QQYHRLPYS | 620 nM | 2 of 3 |
| KSSQSVLYESRNKNSVA | WASTRWY | QQYHRLPVS | 65 nM | 3 of 3 |
| KSSQSVLYESRNKNSVA | WASSREC | QQYHRLPGS | 240 nM | 3 of 3 |
| KSSQSVIYESRVKNSVA | WASTRES | QQYHRLPCS | 110 nM | 3 of 3 |
| KSSQSVLYESRNKNSWA | WASTRES | QQEHRLPMS | 440 nM | 1 of 3 |
| KSSQSVTYESRNKGSVA | WASTRES | QQYHRLPFS | 10 nM | 3 of 3 |
| KSSQSVLSESRNKNSVA | WADTRES | QQYHRLPWS | not detected | 0 of 3 |
| KSSQSVLYESRNKNWVA | WASTRES | QLYHRLPIS | 15 µM | 2 of 3 |
| KSSKSVLYESRNKNSVA | WASTRGS | QQYHRLPDS | not detected | 0 of 3 |
| KSSQSVLYESRNKNSVA | WASTRES | WQNHRLPSS | not detected | 0 of 3 |
| KSSQSVLYESRNKNSVA | WASTRES | QQYHRNIQS | 18 µM | 2 of 3 |
| KSSQEVLYESRNKNSVA | MASTRES | QQYHRLPGS | 8.5 nM | 3 of 3 |
| KSSQSRLYESRNKNSVA | WASTRES | QQDHRLPIS | 13 µM | 3 of 3 |
| KSSQSILYESRNKNSVA | WASTRES | QQYHRNPMS | not detected | 0 of 3 |
| KSSQSVLYESRNKNSVA | FASTRES | QVYHRLPVS | 24 nM | 3 of 3 |
| KSSISVLYESRNKNSVA | WASTRES | CQYHRLPWS | not detected | 0 of 3 |
| KSSQSVLYESRNKNSVA | WASTRES | QQYHRLPTT | 39 nM | 3 of 3 |
| KSSQSVLYESRNKNSVA | WASTRES | LQFHRLPQS | 17 µM | 3 of 3 |
| KSSQSVLYESRNKNSVA | WASTRES | QAYHGLPYS | not detected | 0 of 3 |
| KSSQSVLYESMNKNSVA | WASTRCS | QQYHRLPYS | 7.1 nM | 3 of 3 |
| KSSQAVLYESRNKNSVA | WASTRES | QQYHRMPTS | 12 nM | 3 of 3 |
| KSHQSVLYESRNKNSVA | WASTRES | QQYHFLPMS | not detected | 0 of 3 |
| KSSQHVLYESRNKYSVA | WASTRES | QQYHRLPRS | not detected | 0 of 3 |
| KSSQSVLYESRRKNSVA | WLSTRES | QQYHRLPYS | not detected | 0 of 3 |
| KSSQSVLYESRNKMSVA | WASTRLS | QQYHRLPHS | 110 nM | 3 of 3 |
| KSSQSVLYCSRNKNSIA | WASTRES | QQYHRLPCS | 960 nM | 1 of 3 |
| KSSQSPLYESRNKNSVA | WASTRES | QKYHRLPNS | 51 µM | 1 of 3 |
| KSSQRVLYESRNKNSVA | WASTRES | QQYHRLPAQ | not detected | 0 of 3 |
| KSSQSVLYESRNKGSVA | WASTRES | QQYHRLPES | 10 nM | 3 of 3 |

From the list, the first 8 with no signal in any replicate:

{"CDR-L1": "KSSQSVLYESRNKNSVA", "CDR-L2": "PASTRES", "CDR-L3": "QQYHRLPVS", "Kd": "not detected", "seen in": "0 of 3"}
{"CDR-L1": "KSSQSVLYESRNKNSVA", "CDR-L2": "WASTFES", "CDR-L3": "QQMHRLPNS", "Kd": "not detected", "seen in": "0 of 3"}
{"CDR-L1": "KSSQSVLDESRNKNSVA", "CDR-L2": "WQSTRES", "CDR-L3": "QQYHRLPES", "Kd": "not detected", "seen in": "0 of 3"}
{"CDR-L1": "KSSQSVLYESRNKNSVA", "CDR-L2": "WASTYES", "CDR-L3": "QQMHRLPFS", "Kd": "not detected", "seen in": "0 of 3"}
{"CDR-L1": "KSSQSVLMESRNKNSVQ", "CDR-L2": "WASTRES", "CDR-L3": "QQYHRLPCS", "Kd": "not detected", "seen in": "0 of 3"}
{"CDR-L1": "RSSQSVLYESRNKNSVA", "CDR-L2": "WASTHES", "CDR-L3": "QQYHRLPNS", "Kd": "not detected", "seen in": "0 of 3"}
{"CDR-L1": "KSSQSVLYESRNKNSVA", "CDR-L2": "WASTLES", "CDR-L3": "QQYHRLTES", "Kd": "not detected", "seen in": "0 of 3"}
{"CDR-L1": "KSSQSVLSESRNKNSVA", "CDR-L2": "WADTRES", "CDR-L3": "QQYHRLPWS", "Kd": "not detected", "seen in": "0 of 3"}

In this assay the parent's reference entry averaged 4.4 nM; its copy inside this library read 48 nM.